Experiments:
[1] = test system: hP2X7R-expressing HEK293 cells; test: PI staining assay of ATP-induced cell death; details: compound at 10 and 30 μM, 3 mM ATP, 6 h
rP2X7R = rP2X7R (Rattus norvegicus, UniProt Q64663); test: BzATP-induced Ca2+ responses in HEK293 cells expressing rP2X7R (FlexStation, Fura-2); details: compound at 10 μM; 300 μM BzATP
hP2X4R = hP2X4R (Homo sapiens, UniProt Q99571); test: ATP-induced Ca2+ responses in hP2X4R-expressing HEK293 cells; details: compound at 10 μM; 100 μM ATP
Text: (§1) Human embryonic kidney (HEK) 293 cells stably expressing C-terminally EE-tagged human or rat P2X7R [42], [34], human P2X4R [15] and rat P2X3R [28] were generated in previous studies. A stable HEK293 cell line expressing C-terminally His-tagged human P2X7R was generated in this study and there was no difference in the experimental results using EE-tagged and His-tagged human P2X7R. These cells were maintained in Dulbecco’s Modified Eagle Medium (Life Technologies) supplemented with 10% foetal bovine serum and […] G418 in a tissue culture incubator at 37°C and 5% CO2 under humidified conditions. Cells were cultured in T25 flasks and split (every 3–4 days) once confluent.
(§2) FlexStation II and III (Molecular Devices) were used to measure intracellular Ca^2+ concentrations ([Ca^2+]i). Human or rat P2X7R-expressing HEK293 cells were plated in poly-D-lysine-coated 96-well plates (Molecular Devices) with 50,000 cells per well 24 h prior to use. […] Cells were excited at 340 nm and 380 nm alternatively and the emission at 510 nm recorded using a FlexStation. The ratio of fluorescence intensity (F340/F380) was used to indicate the [Ca^2+]i. The basal [Ca^2+]i was recorded for 60 s prior to the exposure to agonist and recording was continued for a further 120 s. […] The maximal changes in F340/F380 (ΔF340/380) were used for quantitative analysis.

The chains behind the UniProt entries cited, without tags or fusion partners.
UniProt Q64663, whole entry: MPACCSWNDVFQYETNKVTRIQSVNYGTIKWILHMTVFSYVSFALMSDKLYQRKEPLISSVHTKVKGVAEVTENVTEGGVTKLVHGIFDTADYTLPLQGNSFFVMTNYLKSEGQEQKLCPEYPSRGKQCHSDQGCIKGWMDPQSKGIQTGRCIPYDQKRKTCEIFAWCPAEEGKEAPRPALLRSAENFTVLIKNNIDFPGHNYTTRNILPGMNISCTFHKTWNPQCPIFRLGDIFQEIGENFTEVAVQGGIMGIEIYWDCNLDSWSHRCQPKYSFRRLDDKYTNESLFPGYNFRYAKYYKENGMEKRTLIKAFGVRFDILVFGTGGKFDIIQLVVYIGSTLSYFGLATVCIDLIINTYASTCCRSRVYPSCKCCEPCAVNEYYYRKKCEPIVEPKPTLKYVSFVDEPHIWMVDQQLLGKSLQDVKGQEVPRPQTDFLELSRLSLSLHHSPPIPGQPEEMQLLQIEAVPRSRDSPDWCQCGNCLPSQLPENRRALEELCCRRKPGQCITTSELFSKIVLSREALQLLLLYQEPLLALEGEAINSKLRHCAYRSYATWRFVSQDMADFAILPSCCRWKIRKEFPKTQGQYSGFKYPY
UniProt Q99571, whole entry: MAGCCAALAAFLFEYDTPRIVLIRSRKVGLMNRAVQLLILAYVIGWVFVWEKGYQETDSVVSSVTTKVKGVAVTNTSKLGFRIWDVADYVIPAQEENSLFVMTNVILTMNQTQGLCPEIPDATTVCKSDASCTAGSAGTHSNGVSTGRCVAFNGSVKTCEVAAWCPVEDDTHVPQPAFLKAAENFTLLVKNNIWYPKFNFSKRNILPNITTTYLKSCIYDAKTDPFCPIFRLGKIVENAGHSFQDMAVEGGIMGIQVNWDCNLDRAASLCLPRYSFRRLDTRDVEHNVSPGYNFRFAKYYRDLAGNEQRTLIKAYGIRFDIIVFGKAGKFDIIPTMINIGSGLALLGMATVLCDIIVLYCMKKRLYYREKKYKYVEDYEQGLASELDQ
UniProt Q99572, whole entry: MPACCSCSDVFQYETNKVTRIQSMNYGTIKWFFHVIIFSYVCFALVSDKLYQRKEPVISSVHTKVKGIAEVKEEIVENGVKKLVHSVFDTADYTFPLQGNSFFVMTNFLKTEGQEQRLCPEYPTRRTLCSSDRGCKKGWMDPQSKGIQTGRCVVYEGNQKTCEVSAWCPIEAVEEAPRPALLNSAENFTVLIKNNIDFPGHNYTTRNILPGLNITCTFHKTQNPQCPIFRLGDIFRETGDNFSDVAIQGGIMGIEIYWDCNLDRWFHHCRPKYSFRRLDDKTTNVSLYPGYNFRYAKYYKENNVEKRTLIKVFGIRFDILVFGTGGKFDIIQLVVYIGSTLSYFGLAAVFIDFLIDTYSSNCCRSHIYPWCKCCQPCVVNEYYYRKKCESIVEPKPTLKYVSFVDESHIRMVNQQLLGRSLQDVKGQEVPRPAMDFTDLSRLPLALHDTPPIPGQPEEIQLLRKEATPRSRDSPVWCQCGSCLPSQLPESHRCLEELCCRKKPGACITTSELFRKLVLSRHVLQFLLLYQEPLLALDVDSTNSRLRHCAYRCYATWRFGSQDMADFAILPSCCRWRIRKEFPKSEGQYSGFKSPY
UniProt P49654, whole entry: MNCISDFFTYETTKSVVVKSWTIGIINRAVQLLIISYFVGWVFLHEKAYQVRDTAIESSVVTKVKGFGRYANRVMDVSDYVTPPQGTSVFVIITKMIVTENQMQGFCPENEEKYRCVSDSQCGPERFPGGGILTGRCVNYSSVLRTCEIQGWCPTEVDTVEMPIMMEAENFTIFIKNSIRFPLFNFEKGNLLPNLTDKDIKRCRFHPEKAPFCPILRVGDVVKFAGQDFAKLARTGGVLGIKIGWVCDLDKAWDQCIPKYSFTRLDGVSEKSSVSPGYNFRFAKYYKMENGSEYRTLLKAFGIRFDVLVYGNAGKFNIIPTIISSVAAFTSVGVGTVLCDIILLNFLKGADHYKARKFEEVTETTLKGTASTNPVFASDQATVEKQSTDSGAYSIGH

hP2X7R [2] = biological target: T1, hP2X7R (Homo sapiens, UniProt Q99572); test: BzATP-induced Ca2+ responses in HEK293 cells expressing hP2X7R (FlexStation, Fura-2); details: 300 μM BzATP
hP2X7R [3] = biological target: T1, hP2X7R; test: Whole-cell patch-clamp recording of BzATP-induced currents in hP2X7R-expressing HEK293 cells; details: 300 μM BzATP
rP2X3R = rP2X3R (Rattus norvegicus, UniProt P49654); test: ATP-induced Ca2+ responses in rP2X3R-expressing HEK293 cells; details: compound at 10 μM; 100 μM ATP
Text: as §1, §2

hP2X7R [4] = biological target: T1, hP2X7R; test: ATP-induced YO-PRO-1 uptake by single cell imaging in hP2X7R-expressing HEK293 cells; details: 5 μM compound; 1 mM ATP, 30 min; ATP alone 63.0 ± 11.7%, control 14.7 ± 4.0%
hP2X7R [5] = biological target: T1, hP2X7R; test: BzATP-induced YO-PRO-1 uptake (large pore formation) in hP2X7R-expressing HEK293 cells, FlexStation; details: read-out: IC50 (μM) (dye uptake), YO-PRO-1 uptake induced by 300 μM BzATP, mean ± SEM

Compound: CN(Cc1c(F)cccc1Cl)C(=O)c1ccc([N+](=O)[O-])s1
- reduction of ATP-induced cell death [1]: ≥ 50%
- inhibition of BzATP-induced Ca^2+ responses (rP2X7R) (rP2X7R): 66.2 ± 22%
- effect on ATP-induced Ca^2+ responses in hP2X4R-expressing HEK293 cells (hP2X4R): no significant effect
- inhibition of BzATP-induced Ca^2+ responses (hP2X7R) (hP2X7R [2]; compound at 10 μM): 91.2 ± 4%
- extent of inhibition of BzATP-induced Ca^2+ responses at highest concentrations (hP2X7R [2]; highest concentrations applied (10–30 μM)): complete inhibition
- IC50 (hP2X7R [2]; read-out: IC50 (μM) (Ca^2+ response), hP2X7R-expressing HEK293 cells, mean ± SEM): 3.2 µM
- effect on BzATP-induced currents (hP2X7R [3]; applied at 30–100 μM): no inhibition
- IC50 (hP2X7R [3]; read-out: IC50 (μM) (current), 4 s, whole-cell patch-clamp, hP2X7R-expressing HEK293 cells, mean ± SEM): > 100 µM
- effect on rP2X3R-mediated ATP-induced Ca^2+ responses (rP2X3R): smaller but statistically insignificant inhibition
- percentage of YO-PRO-1 positive cells in ATP-treated cells (hP2X7R [4]): 33.8 ± 5.6%
- IC50 (hP2X7R [5]): 0.8 µM

— PMC5012888, “Structure-based identification and characterisation of structurally novel human P2X7 receptor antagonists” (Biochemical Pharmacology, 2016)
